Laboratory results reported in patent publication US20260382572A1, “TREATMENT OF FRONTOTEMPORAL DEMENTIA OR FRONTOTEMPORAL LOBAR DEMENTIA” (published 2026).

Sequences of proteins named here, by UniProt entry; tags and fusion partners are left off. Residues count along the entry.
UniProt P35354, 18-604 limits assumed: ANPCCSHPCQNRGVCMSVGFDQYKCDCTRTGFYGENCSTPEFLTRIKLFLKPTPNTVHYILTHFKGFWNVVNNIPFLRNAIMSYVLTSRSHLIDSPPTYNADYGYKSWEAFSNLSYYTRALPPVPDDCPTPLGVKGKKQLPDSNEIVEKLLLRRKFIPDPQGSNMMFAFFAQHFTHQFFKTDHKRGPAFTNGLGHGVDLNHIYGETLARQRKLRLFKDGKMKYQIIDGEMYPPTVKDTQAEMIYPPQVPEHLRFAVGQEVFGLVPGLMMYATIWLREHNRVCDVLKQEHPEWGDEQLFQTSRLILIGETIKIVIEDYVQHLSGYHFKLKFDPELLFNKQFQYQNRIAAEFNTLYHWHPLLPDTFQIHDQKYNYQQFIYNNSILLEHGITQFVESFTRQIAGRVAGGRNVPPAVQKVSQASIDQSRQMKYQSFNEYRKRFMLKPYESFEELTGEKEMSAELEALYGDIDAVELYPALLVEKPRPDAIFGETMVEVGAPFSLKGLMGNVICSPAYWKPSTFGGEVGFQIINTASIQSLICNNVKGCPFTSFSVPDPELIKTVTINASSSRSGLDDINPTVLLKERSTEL

Legend:
[1] = system: primary rat glial cultures; assay: Anti-neuroinflammatory effect: % reduction of nitrites in LPS-stimulated primary rat glial cultures (Griess/MTT); conditions: Table 2
Procedure: Screening for anti-inflammatory properties in primary rat glial cultures was performed according to the protocol described previously [Gameiro, Isabel et al. “Discovery of the first dual GSK3β inhibitor/Nrf2 inducer. A new multitarget therapeutic strategy for Alzheimer's disease.” Scientific reports vol. 7 45701. 31 Mar. 2017, doi:10.1038/srep45701]. All compounds were evaluated at the single concentration of 3 μM. Neuroinflammation was quantified as the value of released nitrates, measured by the Griess method, normalized by the number of viable cells measured by the MTT method [Mosmann, T. “Rapid colorimetric assay for cellular growth and survival: application to proliferation and cytotoxicity assays.” Journal of immunological methods vol. 65, 1-2 (1983): 55-63. doi:10.1016/0022-1759(83)90303-4]. LPS alone was considered 100% inflammation.

[2] = PAMPA-BBB in vitro blood-brain barrier permeation assay; conditions: printed in brackets below Pe
From the text: The in vitro blood-brain barrier permeation assay (PAMPA-BBB) was used for predicting the brain penetration of compounds, following a described method [Herrera-Arozamena, Clara et al. “Resveratrol-Based MTDLs to Stimulate Defensive and Regenerative Pathways and Block Early Events in Neurodegenerative Cascades.” Journal of medicinal chemistry vol. 65, 6 (2022): 4727-4751. doi:10.1021/acs.jmedchem.lc01883]. The results are given as the mean±SD. In each experiment, 11 quality control standards of known BBB permeability were included to validate the analysis set.

TNFα mRNA in BV2 cells = assay: TNFα mRNA in LPS-exposed BV2 cells (qRT-PCR); conditions: LPS 24 h; 10 and 30 μM
Procedure: FIG. 1. Compound 1 reduces the inflammatory response against LPS in vitro. (A) Nitric oxide (NO) production in BV2 cells detected by DAF 24 h after LPS exposure and normalized by cell viability measured by MTT (n=9). (B) qRT-PCR of TNFα (n=9) in BV2 cells after 24 h LPS exposure. Sulforaphane (Sfn) was used as a positive control.
Example 2.2. In vitro treatment with Compound 1 has anti-inflammatory effects in microglial derived cells.

[3] = LPS-induced sickness behaviour: body weight; conditions: 20 mg·kg^−1 i.p.; compared to LPS-vehicle treated animals
Procedure: FIG. 5. Sub-chronical Compound 1 administration improves behavioural parameters in LPS treated mice. Compound 1 (20 mg·kg^−1) was injected once a day via i.p. four days before the i.p. LPS (0.5 mg·kg^−1) administration, thereafter behavioural tests were conducted. (A) Mice weight change (T0 and T24: saline n=17, LPS n=17, LPS+Compound 1 n=19, T4 and T8 saline n=8, LPS n=7, LPS+Compound 1 n=8). (B) Locomotion activity measured by line crossings of an imaginary grid. (C) Scheme of NOR test. (D) Discrimination index (DI) of the mice studied: saline (n=16), LPS (n=9) and LPS+Compound 1 (n=13).
The LPS in vivo model was induced, sickness behaviour evaluated (locomotion test and novel object recognition test) and cytokines measured by qPCR as described by [Fernindez-Mendivil, Cristina et al. “Protective role of microglial HO-1 blockade in aging: Implication of iron metabolism.” Redox biology vol. 38 (2021): 101789. doi:10.1016/j.redox.2020.101789]. The panel of mouse cytokines, chemokines, and growth factors were measured by Luminex xMAP technology for multiplexed quantification at Evetechnologies (https://www.evetechnologies.com/)
Example 2.3.1. Treatment with Compound 1 reduces LPS-induced cytokine expression and release in mouse brain. […] Thereafter, behavioural, and biochemical outcomes were analysed at different time points.

[4] = target: human cyclooxygenase-2 (hCOX-2) (Homo sapiens, UniProt P35354); assay: SafetyScreen44 panel: human cyclooxygenase-2; conditions: read-out: IC50 (hCOX-2)
Procedure: Example 3. Safety study with respect to Compound 1. Compound 1 was assayed in 44 different biological targets described as source of potential secondary effects, SafetyScreen44 panel (outsourced at Eurofins Discovery).

male and female mice = assay: Maximum tolerated dose (MTD) in mice; conditions: oral 500 mg/kg, 60 and 120 min after administration
Procedure: Example 3.6. Maximum tolerated dose (MTD) in mice. Compound 1 was orally administered at different doses (100, 200, and 500 mg/kg) to male and female mice and potential side effects were observed after 60 and 120 min following administration (Eurofins Pharmacology). […] This evidence indicates a considerable range of safety for Compound 1 by oral administration, between the tested therapeutic dose (50 mg/kg) and the maximum tolerated dose (500 mg/kg).

Q: For COc1ccc2c(c1)CC(c1c[nH]c3ccc(OC)cc13)N2 (stereo not drawn), which “anti-neuroinflammatory activity (in words)” value [1] is on record?
A: best anti-neuroinflammatory activity

Q: What about the “PAMPA-BBB classification (cns+)” value [2] of the same molecule?
A: (cns+)

Q: What about the “TNF-α mRNA” value (TNFα mRNA in BV2 cells) of the same molecule?
A: reduced the proinflammatory cytokine TNF-α mRNA in a concentration-dependent manner

Q: And the body weight loss [3]?
A: less reduction of the body weight loss

Q: What about the IC50 [4] of the same molecule?
A: 260 nM

Q: What about the “observable side effects (behavioral, neurological, autonomic)” value (male and female mice) of the same molecule?
A: did not cause any observable side effects
